Earlier results in article PMC2603313, “Direct Inhibition of GSK3β by the Phosphorylated Cytoplasmic Domain of LRP6 in Wnt/β-Catenin Signaling” (PLoS ONE, 2008).
pKi: −log10 of the molar value.

Biological target: caspase-3
Conditions: read-out: Ki toward caspase-3; cited from earlier work
Description: Given this Ki value, the inhibitory effect of phosphorylated LRP6 on GSK3β is relatively low compared to other cytoplasmic protein inhibitors, such as XIAP (Ki toward caspase-3 ∼2 nM [26]), although it is a much stronger inhibitor than the phosphorylated N-terminal segment of GSK3β in trans. However, the weak inhibitory effect of the phosphorylated LRP6 on GSK3β could become important when GSK3β and ...

With “XIAP: cytoplasmic protein inhibitor (toward caspase-3)” as the substance, how does the pKi read?
The pKi was about 8.70.
